Consider one molecule from ChEMBL document CHEMBL3875206, “Design, synthesis and biological evaluation of 4'-aminochalcone-rivastigmine hybrids as multifunctional agents for the treatment of Alzheimer's disease” (Bioorg Med Chem, 2017).

Chains of the proteins cited; added tags and fusions are not shown. Lines headed by an entry give the natural chain unless they say otherwise; changes in a name come on top.
UniProt O42275: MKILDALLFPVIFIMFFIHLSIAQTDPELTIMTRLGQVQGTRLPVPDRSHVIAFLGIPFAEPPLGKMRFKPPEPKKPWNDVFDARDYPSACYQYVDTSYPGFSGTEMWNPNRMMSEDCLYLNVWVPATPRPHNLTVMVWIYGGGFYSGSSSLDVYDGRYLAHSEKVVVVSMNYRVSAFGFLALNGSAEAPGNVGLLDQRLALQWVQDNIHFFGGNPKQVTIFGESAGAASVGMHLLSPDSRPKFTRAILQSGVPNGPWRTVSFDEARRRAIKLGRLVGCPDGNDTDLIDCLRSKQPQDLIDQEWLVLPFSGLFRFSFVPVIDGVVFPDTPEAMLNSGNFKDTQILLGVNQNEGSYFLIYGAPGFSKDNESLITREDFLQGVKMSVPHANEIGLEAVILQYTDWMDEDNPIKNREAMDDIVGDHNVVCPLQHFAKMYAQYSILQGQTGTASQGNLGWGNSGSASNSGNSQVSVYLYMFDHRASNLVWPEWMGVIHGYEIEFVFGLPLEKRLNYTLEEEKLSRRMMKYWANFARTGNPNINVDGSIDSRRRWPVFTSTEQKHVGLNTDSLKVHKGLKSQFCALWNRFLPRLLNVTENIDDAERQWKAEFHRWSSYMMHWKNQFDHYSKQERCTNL

The test addresses Acetylcholinesterase (Electrophorus electricus) (UniProt O42275). Kind of test: Potency index, ratio of rivastigmine IC50 to compound IC50 for electric eel AChE.

For the molecule `CN(C)c1ccc(/C=C/C(=O)c2ccc(OC(=O)N3CCCC3)cc2O)cc1`, the Ratio IC50 was found to be 2.
